In ChEMBL document CHEMBL4261658, “4-Hydroxy-3-nitro-5-ureido-benzenesulfonamides Selectively Target the Tumor-Associated Carbonic Anhydrase Isoforms IX and XII Showing Hypoxia-Enhanced Antiproliferative Profiles” (J Med Chem, 2018) one finds Ki data, which are given here for one compound.

Sequences of proteins named here, by UniProt entry; tags and fusion partners are left off. Residues count along the entry.
UniProt O43570, 25-354 limits assumed: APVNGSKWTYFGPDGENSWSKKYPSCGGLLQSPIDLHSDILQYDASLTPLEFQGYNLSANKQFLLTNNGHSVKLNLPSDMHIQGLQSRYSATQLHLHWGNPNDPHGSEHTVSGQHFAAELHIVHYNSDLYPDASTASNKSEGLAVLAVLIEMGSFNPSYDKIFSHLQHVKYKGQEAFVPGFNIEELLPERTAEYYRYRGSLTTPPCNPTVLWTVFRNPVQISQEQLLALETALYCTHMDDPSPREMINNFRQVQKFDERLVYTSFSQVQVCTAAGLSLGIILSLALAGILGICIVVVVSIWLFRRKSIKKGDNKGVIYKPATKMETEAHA
UniProt P00915, 2-261 limits assumed: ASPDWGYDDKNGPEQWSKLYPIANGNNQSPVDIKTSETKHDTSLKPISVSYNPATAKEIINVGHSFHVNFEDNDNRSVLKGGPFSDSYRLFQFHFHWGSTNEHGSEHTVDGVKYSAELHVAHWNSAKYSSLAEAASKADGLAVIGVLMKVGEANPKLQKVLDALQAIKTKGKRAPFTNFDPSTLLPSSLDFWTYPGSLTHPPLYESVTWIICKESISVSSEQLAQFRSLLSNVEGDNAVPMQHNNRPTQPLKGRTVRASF

Some targets named below: Carbonic anhydrase 12 (Homo sapiens, UniProt O43570); Carbonic anhydrase 1 (Homo sapiens, UniProt P00915); Carbonic anhydrase 2 (Homo sapiens, UniProt P00918).
For the next assay, the target named is Carbonic anhydrase 9 (Homo sapiens, UniProt Q16790). Description: Inhibition of carbonic anhydrase 9 (unknown origin) preincubated for 15 mins by stopped flow CO2 hydration assay.

As to `NS(=O)(=O)c1cc([N+](=O)[O-])c(O)c([N+](=O)[O-])c1`, the Ki at Carbonic anhydrase 9 was 100 nM; on Carbonic anhydrase 12, 80 nM; on Carbonic anhydrase 1, 4350 nM; at Carbonic anhydrase 2, 180 nM.

By Ki is commonly meant a measure of affinity in units of concentration, obtained from inhibition or displacement. High values mean weaker binding, low ones tighter binding.
